Data taken from PubChem BioAssay AID624297 (National Center for Advancing Translational Sciences (NCATS), 2012).
Only a part is listed here, and it is no random draw. Inconclusive results are not listed. A call without a number means that no potency is given here. Some structures show a salt or complex split into parts, the way the source records it. The source made the active and inactive calls. Calls follow the shape of the dose curve; as a rule, active = well fitted activation curve with a large enough effect; inconclusive = small, poorly fitted or top-dose-only effect; inactive = no such curve, though single readings can be large or run the other way.

Test: A quantitative high throughput screen for small molecules that induce DNA re-replication in SW480 colon adenocarcinoma cells. Also: nearly all actives have a fitted effect of over 55% in size.
Details: Hoechst DNA content imaging, 48 h; series mostly up to 46.1 µM
Potency is read from the fitted curve at half-maximal effect.

| SMILES | re-replication activation | Potency |
| --- | --- | --- |
| Cc1ccc(C(=O)NCC2(N3CCCCC3)CCCCC2)o1 | inactive | – |
| Fc1ccccc1NC1CCN(Cc2ccccc2)CC1 | inactive | – |
| Cc1ccc(NC2(C#N)CCN(Cc3ccccc3)CC2)cc1 | inactive | – |
| CC(=O)N(c1ccccc1)C1CCNCC1 | inactive | – |
| COc1cc(OC)cc(C(=O)NCC2(N3CCCCC3)CCCCC2)c1 | inactive | – |
| O=C(NCC1(N2CCCCC2)CCCCC1)c1ccco1 | inactive | – |
| CN(C)c1ccc(C(=O)NCC2(N3CCCCC3)CCCCC2)cc1 | inactive | – |
| Cc1ccccc1NC1(C#N)CCN(Cc2ccccc2)CC1 | inactive | – |
| CCN1CCC(Nc2cccc(F)c2)CC1 | inactive | – |
| CC(C)(C)OC(=O)N1CCC(Nc2ccccc2)CC1 | inactive | – |
| O=C(O)C1(Nc2ccccc2)CCN(Cc2ccccc2)CC1 | inactive | – |
| CCCOc1ccc(C(=O)NCC2(N(C)C)CCCCC2)cc1 | inactive | – |
| CCOc1ncccc1C(=O)NCC1(N2CCOCC2)CCCCC1 | inactive | – |
| CN1CCC(Nc2ccc(F)c(Cl)c2)CC1 | inactive | – |
| CN1CCC(Nc2ccc(Cl)cc2)CC1 | inactive | – |
| COc1cc(OC)cc(C(=O)NCC2(N3CCOCC3)CCCCC2)c1 | inactive | – |
| COc1cccc(C(=O)N(c2cc(C)cc(C)c2)C2CCN(C(=O)OC(C)(C)C)CC2)c1 | inactive | – |
| CCC(CO)(C(=O)OC1CN2CCC1CC2)c1ccccc1 (stereo unspecified) | inactive | – |
| COc1ccc(C(=O)NCC2(N3CCOCC3)CCCCC2)cc1OC | inactive | – |
| COc1cc(C(=O)NCC2(N3CCOCC3)CCCCC2)cc(OC)c1C | inactive | – |
| O=C(NCC1(N2CCOCC2)CCCCC1)c1cc(Br)ccc1Cl | inactive | – |
| O=C(OC1CN2CCC1CC2)C1c2ccccc2C=Cc2ccccc21 (stereo unspecified) | inactive | – |
| CCc1cc(C(=O)NCC2(N3CCCCC3)CCCCC2)sc1C | inactive | – |
| O=C(O)c1cccc(Nc2c([N+](=O)[O-])cc([N+](=O)[O-])cc2[N+](=O)[O-])c1 | inactive | – |
| CCOC(=O)N1CCC(Nc2ccc(C)cc2)CC1 | inactive | – |
| N/C(=N\O)c1c(N)no[n+]1[O-] | inactive | – |

| SMILES | re-replication activation | Potency |
| --- | --- | --- |
| CCOC(=O)C(CC)C1=NC(C)(C)Cc2ccccc21.O=[N+]([O-])c1cc([N+](=O)[O-])c(O)c([N+](=O)[O-])c1 (stereo unspecified) | inactive | – |
| N#Cc1ccc(C(=O)NCC2(N3CCCCC3)CCCCC2)cc1 | inactive | – |
| CC(C)(C)OC(=O)N1CCC(N(C(=O)c2ccccc2)c2ccc(Cl)cc2)CC1 | inactive | – |
| CN(C)C1(CNC(=O)c2cccc(C#N)c2)CCCCC1 | inactive | – |
| c1ccc(CN2CCC(Nc3ccccc3)CC2)cc1 | inactive | – |
| CCN1CCC(Nc2ccc(Cl)cc2)CC1 | inactive | – |
| N#CC1(Nc2ccccc2)CCN(CCc2ccccc2)CC1 | inactive: 1.32% [at 9.22 µM] | – |
| CSc1ccc(C(=O)NCC2(N3CCOCC3)CCCCC2)cc1 | inactive | – |
| O=C(NCC1(N2CCCCC2)CCCCC1)c1cccc([N+](=O)[O-])c1 | inactive | – |
| O=C(NCC1(N2CCCCC2)CCCCC1)c1ccc(OC(F)F)cc1 | inactive | – |
| COc1cc(C(=O)NCC2(N3CCCCC3)CCCCC2)ccc1OC(F)F | inactive | – |
| O=C(NCC1(N2CCOCC2)CCCCC1)c1cc(=O)[nH]c2ccccc12 | inactive | – |
| CN1CCN(CCOC(=O)C(O)(c2ccccc2)c2ccccc2)CC1 | inactive | – |
| COc1ccc(NC2CCN(C(=O)OC(C)(C)C)CC2)cc1 | inactive | – |
| O=C(NCC1(N2CCCCC2)CCCCC1)c1cccc(C(F)(F)F)c1 | inactive | – |
| COc1cc(OC)c(C(=O)NCC2(N(C)C)CCCCC2)cc1OC | inactive | – |
| O=C(NCC1(N2CCOCC2)CCCCC1)c1cc(F)c(F)cc1Cl | inactive | – |
| CC(C)c1ccc(NC2CCN(C(=O)OC(C)(C)C)CC2)cc1 | inactive | – |
| COc1ccc(CN(CCCl)CCCl)cc1Cl | inactive | – |
| O=[N+]([O-])c1cc([N+](=O)[O-])c(OC2CCCCC2O)c([N+](=O)[O-])c1 (stereo unspecified) | inactive | – |
| CN(C)c1cccc(C(=O)NCC2(N3CCCCC3)CCCCC2)c1 | inactive | – |
| CCCOc1ccc(C(=O)NCC2(N(C)C)CCCCC2)cc1OC | inactive | – |
| O=C(OC1CN2CCC1CC2)c1ccc([N+](=O)[O-])cc1 (stereo unspecified) | inactive | – |
| COc1ccc2c(c1O)-c1c(O)c(OC)cc3c1[C@H](C2)[N+](C)(C)CC3.O=[N+]([O-])c1cc([N+](=O)[O-])c([O-])c([N+](=O)[O-])c1[O-] | inactive | – |
| O=C(NCC1(N2CCCCC2)CCCCC1)c1cncc(Br)c1 | inactive | – |
| CN1CCC(Nc2cccc(F)c2)CC1 | inactive | – |

| SMILES | re-replication activation | Potency |
| --- | --- | --- |
| CSc1ccccc1C(=O)NCC1(N2CCCCC2)CCCCC1 | inactive | – |
| Cc1cccc(NC2(C#N)CCN(Cc3ccccc3)CC2)c1 | inactive | – |
| COc1ccc(C(=O)NCC2(N3CCCCC3)CCCCC2)cc1 | inactive | – |
| CC(C)(C)OC(=O)N1CCC(N(C(=O)c2ccccc2)c2ccc(F)cc2)CC1 | inactive | – |
| COc1ccc(C(=O)NCC2(N3CCCCC3)CCCCC2)c(OC)c1OC | inactive | – |
| O=C(NCC1(N2CCCCC2)CCCCC1)c1ccc(=O)[nH]c1 | inactive | – |
| O=C(NCC1(N2CCCCC2)CCCCC1)c1cccs1 | inactive | – |
| O=C(OC1CN2CCC1CC2)C1c2ccccc2Oc2ccccc21 (stereo unspecified) | inactive | – |
| N#CC1(Nc2ccccc2)CCN(Cc2ccccc2)CC1 | inactive | – |
| O=C(NCC1(N2CCCCC2)CCCCC1)c1ccc(Cl)s1 | inactive | – |
| O=C1C(O)=C([N+](=O)[O-])C(=O)C(O)=C1[N+](=O)[O-] | inactive | – |
| COc1ccc(Cl)cc1C(=O)NCC1(N2CCOCC2)CCCCC1 | inactive | – |
| CCOC(=O)N1CCC(Nc2ccc(OC)cc2)CC1 | – | active: 18.4 µM |
| O=C(NCC1(N2CCCCC2)CCCCC1)c1ccc(Cl)nc1 | inactive | – |
| O=C(NCC1(N2CCOCC2)CCCCC1)c1cc2ccccc2o1 | inactive | – |
| O=C(NCC1(N2CCCCC2)CCCCC1)c1ccc(F)cc1 | inactive | – |
| O=P1(N(CCCl)CCCl)SCCCS1 | inactive | – |
| CCCCOc1ccc(C(=O)NCC2(N3CCOCC3)CCCCC2)cc1 | inactive | – |
| COc1ccc(NC2CCN(CCc3ccccc3)CC2)c(OC)c1 | inactive | – |
| CCOC(=O)N1CCC(Nc2ccc(F)cc2)CC1 | inactive | – |
| O=C1CCN(Cc2ccccc2)CC1 | inactive | – |
| CCOc1ccc(C)cc1CN(CCCl)CCCl | inactive: -4.72% [at 9.22 µM] | – |
| COc1cc(C(=O)NCC2(N(C)C)CCCCC2)ccc1OC(F)F | inactive | – |
| CCOC(=O)N1CCC(Nc2cccc(C)c2)CC1 | inactive | – |
